From ChEMBL document CHEMBL1131586, “New antipsychotic agents with serotonin and dopamine antagonist properties based on a pyrrolo[2,1-b][1,3]benzothiazepine structure” (J Med Chem, 1998)

Protein sequences, listed by entry. Tags and fused reporters are not part of them.
UniProt P18901, whole entry: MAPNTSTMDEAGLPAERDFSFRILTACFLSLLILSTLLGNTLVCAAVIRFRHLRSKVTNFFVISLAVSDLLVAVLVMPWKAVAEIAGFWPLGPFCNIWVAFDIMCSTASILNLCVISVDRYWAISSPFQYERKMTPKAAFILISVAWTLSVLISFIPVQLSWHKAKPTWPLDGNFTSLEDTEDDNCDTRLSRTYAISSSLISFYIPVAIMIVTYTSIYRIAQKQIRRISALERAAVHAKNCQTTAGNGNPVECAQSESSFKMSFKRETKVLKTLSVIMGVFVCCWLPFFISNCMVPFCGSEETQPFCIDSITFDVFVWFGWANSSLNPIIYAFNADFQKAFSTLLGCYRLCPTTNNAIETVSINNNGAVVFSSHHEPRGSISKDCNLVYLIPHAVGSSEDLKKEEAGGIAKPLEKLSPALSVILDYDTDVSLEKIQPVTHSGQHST

Target: D(1A) dopamine receptor (Rattus norvegicus, UniProt P18901)

In the case of `CN1CCN(C2Cn3cccc3Sc3ccc(Cl)cc32)CC1` (stereo in doubt; (+)3b), the pKi was 7.80.

pKi: −log10 of the molar value.
